Molecular target: wild-type human cardiac sodium channel, hNav1.5 (Homo sapiens, UniProt Q14524)
Experiment: Late INa screening assay (PatchXpress whole cell patch clamp, late current generated with Tefluthrin or ATX II)
Type: cell-based
Conditions: test compound at 10 μM
Protocol: The late sodium current (Late INa) and peak sodium current (Peak INa) assays are performed on an automated electrophysiology platform, PatchXpress 7000A (MDS Analytical Technologies, Sunnyvale, Calif.), which uses the whole cell patch clump technique to measure currents through the cell membrane of up to 16 cells at a time. The assay uses an HEK293 (human embryonic kidney) cell line heterologously expressing the wild-type human cardiac sodium channel, hNav1.5, purchased from Millipore (Billerica, Mass.). No beta subunits were coexpressed with the Na channel alpha subunit. […] Experiments are carried out at 24-27° C.
For both the Late INa and Peak INa assays, series resistance compensation is set to 50% and whole-cell compensation is performed automatically. […] Currents through open sodium channels are automatically recorded and stored in the DataXpress2 database (MDS Analytical Technologies, Sunnyvale, Calif.). Analysis is performed using DataXpress2 analysis software and data are compiled in Excel.
Compound stocks are routinely made in glass vials to 10 mM in dimethyl sulfoxide (DMSO). […]
All compounds are tested to determine their activity in blocking the late sodium current. […] Baseline current in the absence of Na^+ ions is measured at the end of each experiment (after two additions of 0 Na solution—see above) and is used to calculate the percent block by compound.

Sequences of proteins named here, by UniProt entry; tags and fusion partners are left off.
UniProt Q14524, whole entry: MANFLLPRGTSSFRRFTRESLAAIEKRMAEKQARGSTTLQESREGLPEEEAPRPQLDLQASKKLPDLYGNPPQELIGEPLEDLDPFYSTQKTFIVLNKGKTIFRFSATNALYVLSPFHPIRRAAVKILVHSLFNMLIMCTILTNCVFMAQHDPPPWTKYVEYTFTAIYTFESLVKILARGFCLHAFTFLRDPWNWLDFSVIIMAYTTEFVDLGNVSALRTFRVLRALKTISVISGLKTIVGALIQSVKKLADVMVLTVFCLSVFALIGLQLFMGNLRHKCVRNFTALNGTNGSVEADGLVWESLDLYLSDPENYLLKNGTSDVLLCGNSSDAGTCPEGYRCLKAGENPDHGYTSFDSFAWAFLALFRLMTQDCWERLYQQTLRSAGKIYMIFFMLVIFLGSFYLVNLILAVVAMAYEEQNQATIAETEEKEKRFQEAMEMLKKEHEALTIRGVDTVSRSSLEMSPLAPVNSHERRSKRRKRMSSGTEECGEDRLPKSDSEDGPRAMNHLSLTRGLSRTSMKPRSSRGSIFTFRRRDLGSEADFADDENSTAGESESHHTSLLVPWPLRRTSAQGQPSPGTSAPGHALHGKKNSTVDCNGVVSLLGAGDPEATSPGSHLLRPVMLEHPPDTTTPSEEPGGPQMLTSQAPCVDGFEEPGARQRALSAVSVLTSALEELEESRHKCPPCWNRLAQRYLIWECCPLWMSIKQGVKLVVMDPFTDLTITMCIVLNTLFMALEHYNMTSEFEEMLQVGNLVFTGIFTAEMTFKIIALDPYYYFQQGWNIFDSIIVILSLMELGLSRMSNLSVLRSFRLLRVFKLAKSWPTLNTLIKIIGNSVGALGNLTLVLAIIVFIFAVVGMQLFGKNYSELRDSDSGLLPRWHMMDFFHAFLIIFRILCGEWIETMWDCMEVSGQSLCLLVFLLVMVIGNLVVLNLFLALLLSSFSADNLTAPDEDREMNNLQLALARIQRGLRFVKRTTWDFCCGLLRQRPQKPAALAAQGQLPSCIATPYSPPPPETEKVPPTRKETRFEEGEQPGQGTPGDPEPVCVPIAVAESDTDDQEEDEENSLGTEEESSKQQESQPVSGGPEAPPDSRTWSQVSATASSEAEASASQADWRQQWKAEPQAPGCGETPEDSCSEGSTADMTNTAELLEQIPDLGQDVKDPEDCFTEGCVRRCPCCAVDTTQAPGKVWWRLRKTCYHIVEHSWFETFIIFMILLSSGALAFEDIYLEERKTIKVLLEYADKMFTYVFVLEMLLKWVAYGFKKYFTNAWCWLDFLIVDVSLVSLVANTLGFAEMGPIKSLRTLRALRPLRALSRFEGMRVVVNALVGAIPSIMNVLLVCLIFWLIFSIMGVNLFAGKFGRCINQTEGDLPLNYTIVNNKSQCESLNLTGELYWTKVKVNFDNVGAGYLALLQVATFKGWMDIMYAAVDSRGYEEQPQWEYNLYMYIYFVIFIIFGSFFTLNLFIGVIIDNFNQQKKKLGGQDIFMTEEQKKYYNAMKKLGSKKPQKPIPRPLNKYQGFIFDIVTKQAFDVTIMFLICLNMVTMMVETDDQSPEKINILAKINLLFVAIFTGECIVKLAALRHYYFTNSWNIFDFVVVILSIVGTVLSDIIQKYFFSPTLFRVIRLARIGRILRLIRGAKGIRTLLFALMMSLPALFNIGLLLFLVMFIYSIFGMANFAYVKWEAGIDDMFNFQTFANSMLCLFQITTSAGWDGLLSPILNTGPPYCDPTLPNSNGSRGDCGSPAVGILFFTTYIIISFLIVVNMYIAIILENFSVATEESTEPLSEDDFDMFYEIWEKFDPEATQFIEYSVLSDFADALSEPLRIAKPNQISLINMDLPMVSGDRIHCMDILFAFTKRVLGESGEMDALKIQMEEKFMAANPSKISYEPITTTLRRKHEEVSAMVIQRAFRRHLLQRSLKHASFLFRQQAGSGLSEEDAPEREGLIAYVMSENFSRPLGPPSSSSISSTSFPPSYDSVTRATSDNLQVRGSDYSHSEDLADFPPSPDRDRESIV

For `CN(C)CCC1=C(C(=O)OCc2ccccc2)C(c2cccc3ccccc23)n2nnnc2N1` (stereo not shown) [PT-338, benzyl 5-(2-(dimethylamino)ethyl)-7-(naphthalen-1-yl)-4,7-dihydrotetrazolo[1,5-a]pyrimidine-6-carboxylate], the “Late INa % blk” value was 56.3%.

— patent US20090181986A1, “SUBSTITUTED HETEROCYCLIC COMPOUNDS” (priority 2007, published 2009)
